We go through 2 compounds from ChEMBL document CHEMBL5096194, “Development of Alectinib-Based PROTACs as Novel Potent Degraders of Anaplastic Lymphoma Kinase (ALK)” (J Med Chem, 2021).

Sequences of proteins named here, by UniProt entry; tags and fusion partners are left off. A change or cut given only in a name is not applied to a line headed by its entry.
UniProt Q9UM73: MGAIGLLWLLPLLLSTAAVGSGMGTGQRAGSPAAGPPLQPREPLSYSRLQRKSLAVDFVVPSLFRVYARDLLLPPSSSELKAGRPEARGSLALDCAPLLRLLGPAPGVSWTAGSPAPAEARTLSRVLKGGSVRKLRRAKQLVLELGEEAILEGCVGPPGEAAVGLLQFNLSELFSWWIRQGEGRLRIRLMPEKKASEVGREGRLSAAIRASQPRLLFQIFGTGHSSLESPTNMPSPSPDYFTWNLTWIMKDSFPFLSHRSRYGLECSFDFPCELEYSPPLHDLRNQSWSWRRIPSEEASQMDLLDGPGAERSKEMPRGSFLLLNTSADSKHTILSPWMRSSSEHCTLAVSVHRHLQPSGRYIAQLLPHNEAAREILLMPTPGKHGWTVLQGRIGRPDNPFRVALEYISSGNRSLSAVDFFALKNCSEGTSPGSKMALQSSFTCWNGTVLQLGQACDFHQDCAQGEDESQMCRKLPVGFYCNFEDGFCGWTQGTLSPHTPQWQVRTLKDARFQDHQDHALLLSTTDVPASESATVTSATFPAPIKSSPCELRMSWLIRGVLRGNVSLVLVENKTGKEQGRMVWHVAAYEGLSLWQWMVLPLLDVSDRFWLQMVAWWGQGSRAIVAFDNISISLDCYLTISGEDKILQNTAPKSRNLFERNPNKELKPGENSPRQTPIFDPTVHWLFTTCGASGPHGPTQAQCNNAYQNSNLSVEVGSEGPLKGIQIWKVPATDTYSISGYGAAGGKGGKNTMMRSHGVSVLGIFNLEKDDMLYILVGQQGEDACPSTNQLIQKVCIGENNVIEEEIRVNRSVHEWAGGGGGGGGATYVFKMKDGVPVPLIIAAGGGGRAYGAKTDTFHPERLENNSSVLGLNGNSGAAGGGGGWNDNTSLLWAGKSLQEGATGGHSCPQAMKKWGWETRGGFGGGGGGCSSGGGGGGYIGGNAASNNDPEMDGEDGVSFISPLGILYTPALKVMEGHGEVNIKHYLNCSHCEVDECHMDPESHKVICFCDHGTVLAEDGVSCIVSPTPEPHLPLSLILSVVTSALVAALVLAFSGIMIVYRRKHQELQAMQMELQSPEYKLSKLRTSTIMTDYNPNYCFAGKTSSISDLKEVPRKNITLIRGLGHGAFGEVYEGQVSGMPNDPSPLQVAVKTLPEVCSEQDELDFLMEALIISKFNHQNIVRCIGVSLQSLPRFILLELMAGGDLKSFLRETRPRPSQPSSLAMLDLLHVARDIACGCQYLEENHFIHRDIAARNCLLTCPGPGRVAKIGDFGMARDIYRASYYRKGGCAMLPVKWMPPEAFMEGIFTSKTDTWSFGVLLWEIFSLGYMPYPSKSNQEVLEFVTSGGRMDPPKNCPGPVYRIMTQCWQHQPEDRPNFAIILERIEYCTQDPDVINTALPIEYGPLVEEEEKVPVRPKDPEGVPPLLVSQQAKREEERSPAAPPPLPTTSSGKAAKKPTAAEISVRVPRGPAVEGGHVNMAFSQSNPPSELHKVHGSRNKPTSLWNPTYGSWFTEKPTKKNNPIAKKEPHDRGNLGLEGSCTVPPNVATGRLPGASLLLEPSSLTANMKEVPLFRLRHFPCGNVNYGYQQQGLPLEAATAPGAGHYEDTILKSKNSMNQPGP

This experiment deals with ALK tyrosine kinase receptor (Homo sapiens, UniProt Q9UM73). The experiment can be described thus: Potency index, ratio of Alectinib IC50 to test compound IC50 for binding affinity to ALK (unknown origin) using TK as substrate incubated for 1 hr in presence of ATP by HTRF analysis.

As for `CCc1cc2c(cc1N1CCC(N3CCNCC3)CC1)C(C)(C)c1[nH]c3cc(C#N)ccc3c1C2=O`, the Ratio IC50 was greater than 3. Then `CCc1cc2c(cc1N1CCNCC1)C(C)(C)c1[nH]c3cc(C#N)ccc3c1C2=O`, with greater than 3.
